Results as given in patent US9962447B2, “Supramolecular aggregates comprising maleimido cores” (UFPEPTIDES S.R.L., priority 2013, dated 2018).

Chains of the proteins cited; added tags and fusions are not shown. Lines headed by an entry give the natural chain unless they say otherwise; changes in a name come on top.
UniProt P41146: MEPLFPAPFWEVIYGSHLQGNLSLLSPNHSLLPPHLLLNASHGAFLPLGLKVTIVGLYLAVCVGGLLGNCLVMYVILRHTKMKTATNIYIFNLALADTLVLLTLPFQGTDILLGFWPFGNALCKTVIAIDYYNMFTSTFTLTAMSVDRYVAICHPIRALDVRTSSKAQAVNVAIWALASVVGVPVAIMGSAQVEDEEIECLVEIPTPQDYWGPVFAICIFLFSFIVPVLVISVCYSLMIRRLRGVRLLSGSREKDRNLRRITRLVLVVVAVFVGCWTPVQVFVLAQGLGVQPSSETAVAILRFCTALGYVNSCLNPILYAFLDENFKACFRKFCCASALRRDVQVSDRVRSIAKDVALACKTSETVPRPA
UniProt P41143, whole entry: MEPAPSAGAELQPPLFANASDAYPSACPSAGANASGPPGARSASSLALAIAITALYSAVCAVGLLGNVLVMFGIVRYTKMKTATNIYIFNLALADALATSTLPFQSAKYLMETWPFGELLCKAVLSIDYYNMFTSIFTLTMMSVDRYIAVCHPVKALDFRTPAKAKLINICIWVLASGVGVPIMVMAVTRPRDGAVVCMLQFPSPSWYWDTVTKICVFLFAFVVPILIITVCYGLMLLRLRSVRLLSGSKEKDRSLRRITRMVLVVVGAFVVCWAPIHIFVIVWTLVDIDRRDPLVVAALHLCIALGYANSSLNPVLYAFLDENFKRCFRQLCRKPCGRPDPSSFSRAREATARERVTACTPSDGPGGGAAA
UniProt P41145: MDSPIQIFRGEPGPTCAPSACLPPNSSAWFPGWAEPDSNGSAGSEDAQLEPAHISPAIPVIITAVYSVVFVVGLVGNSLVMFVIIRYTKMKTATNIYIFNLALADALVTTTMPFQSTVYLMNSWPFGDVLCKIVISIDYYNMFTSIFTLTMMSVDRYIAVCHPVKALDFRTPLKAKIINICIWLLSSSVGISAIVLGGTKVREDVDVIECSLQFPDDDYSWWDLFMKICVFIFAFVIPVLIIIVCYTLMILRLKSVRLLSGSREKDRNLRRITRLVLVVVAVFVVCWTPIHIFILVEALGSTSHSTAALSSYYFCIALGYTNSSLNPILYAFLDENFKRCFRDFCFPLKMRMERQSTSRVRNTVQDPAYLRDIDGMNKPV

Key:
human NOP receptor = human NOP receptor (Homo sapiens, UniProt P41146); experiment: Calcium mobilization in CHO cells expressing human NOP receptor and Gαqi5; assay type: cell-based; settings: maximal effect, % over the basal values
Protocol: (§1) Cells were maintained in culture medium consisting of Dulbecco's MEM/HAM'S F-12 (50/50) supplemented with 10% foetal calf serum, penicillin (100 IU/ml), streptomycin (100 μg/ml), fungizone (2.5 μg/ml), geneticin (G418; 200 μg/ml) and hygromycin B ([…]). Cell cultures were kept at 37° C. in 5% CO2 humidified air. In all cases experimental cultures were free from selection agents (hygromycin B, G418). When confluence was reached (3-4 days), cells were sub-cultured as required using trypsin EDTA and used for experimentation. Cells were seeded at a density of 50,000 cells/well into 96-well black, clear-bottom plates. After 24 hours incubation the cells were loaded with medium supplemented with 2.5 mM probenecid, 3 μM of the calcium sensitive fluorescent dye Fluo-4 AM and 0.01% pluronic acid, for 30 min at 37° C. Afterwards the loading solution was aspirated and 100 μl/well of assay buffer: Hank's Balanced Salt Solution (HBSS) supplemented with 20 mM HEPES, 2.5 mM probenecid and 500 μM Brilliant Black (Aldrich) was added. […] On-line additions were carried out in a volume of 50 μl/well. […]
(§2) Four mice were monitored in parallel. […] Animals locomotion was recorded for 60 min.

[1] = test system: spontaneous locomotor activity; experiment: Mouse locomotor activity, CD-1 mice, i.c.v.; assay type: in vivo; settings: recorded for 120 min
DOP receptor = target: T1, DOP receptor (Homo sapiens, UniProt P41143); experiment: Calcium mobilization in CHO cells expressing DOP receptor and GαqG66Di5; assay type: cell-based; settings: inactive = inactive up to 1 μM
T1 construct: expressed in transfected cells; host or cells: CHO cells co-expressing GαqG66Di5
Protocol: Cell cultures were kept at 37° C. in 5% CO2 humidified air. In all cases experimental cultures were free from selection agents (hygromycin B, G418). When confluence was reached (3-4 days), cells were sub-cultured as required using trypsin EDTA and used for experimentation. Cells were seeded at a density of 50,000 cells/well into 96-well black, clear-bottom plates. After 24 hours incubation the cells were loaded with medium supplemented with 2.5 mM probenecid, 3 μM of the calcium sensitive fluorescent dye Fluo-4 AM and 0.01% pluronic acid, for 30 min at 37° C. Afterwards the loading solution was aspirated and 100 μl/well of assay buffer: Hank's Balanced Salt Solution (HBSS) supplemented with 20 mM HEPES, 2.5 mM probenecid and 500 μM Brilliant Black (Aldrich) was added. […] On-line additions were carried out in a volume of 50 μl/well. To facilitate drug diffusion into the wells in antagonist type experiments, the present studies were performed at 37° C. and three cycles of mixing (25 μl from each well moved up and down 3 times) were performed immediately after antagonist injection to the wells.
as §2

[2] = test system: electrically stimulated mouse vas deferens; experiment: Electrically stimulated mouse vas deferens
Protocol: The bath temperature was set at 33° C. Tissues were continuously stimulated through two platinum ring electrodes with supramaximal rectangular pulses of 1 ms duration and 0.05 Hz frequency. A resting tension of 0.3 g was applied to the vas deferens.
assuming a slope value equal to unity, where CR indicate the ratio between agonist potency in the presence and absence of antagonist.

KOP receptor = KOP receptor (Homo sapiens, UniProt P41145); experiment: Calcium mobilization in CHO cells expressing KOP receptor and Gαqi5; assay type: cell-based; settings: inactive = inactive up to 1 μM
Protocol: as §1, §2

[3] = test system: vas deferens tissues taken from NOP(−/−) mice; experiment: Electrically stimulated vas deferens from NOP(−/−) mice; set-up: species or system mouse
Protocol: The mouse vas deferens were prepared as previously described (Calto et al., Eur J Pharmacol. 311, (1996) R3-5). Tissues were suspended in 5 ml organ baths containing heated Krebs solution (composition in mM: NaCl 118.5, KCl 4.7, KH2PO4 1.2, NaHCO3 25, glucose 10 and CaCl2 2.5) oxygenated with 95% O2 and 5% CO2. The bath temperature was set at 33° C. Tissues were continuously stimulated through two platinum ring electrodes with supramaximal rectangular pulses of 1 ms duration and 0.05 Hz frequency. A resting tension of 0.3 g was applied to the vas deferens. The electrically evoked contractions (twitches) were measured isotonically with a strain gauge transducer (Basile 7006, UgoBasile s.r.l., Varese, Italy) and recorded with the PC based acquisition system Power Lab (ADInstrument, USA). Following an equilibration period of 60 min, the contractions induced by electrical field stimulation were stable.

B1: PWT2-N/OFQ: supramolecular aggregate of maleimido core PWT2 with nociceptin/orphanin FQ, made from PWT2 and [Cys18]N/OFQ-NH2 by thiol-Michael addition (conjugate)
peptide: SCQRDCLTCQEKLHPALDSFDLEVCILECEEKVFPSPLWTPCTKVMARSSWQLSPAAPEHVAAALYQPRASEMQHLRRMPRVRSLFQEQEEPEPGMEEAGEMEQKQLQKRFGGFTGARKSARKLANQKRFSEFMRQYLVLSMQSSQRRRTLHQNGNVC
In the case of B1, the Emax (human NOP receptor) is reported as 239 ± 14%, the “fold more potent than N/OFQ on locomotor activity” value [1] is reported as “about 40 fold” and the pEC50 (DOP receptor) is reported as “inactive”. The “fold higher potency than N/OFQ” value [2] was “approximately 3 fold”, the pEC50 (KOP receptor) was “inactive” and the “fold reduced potency in NOP(−/−) versus NOP(+/+) tissues” value [3] was “more than 100 fold”.
